# Patent US11766432B2, “Cleavable conjugates of catechol compounds and water-soluble polymers and methods of treatment using the same” (SERINA THERAPEUTICS, INC., priority 2018, dated 2023)
# Test system: skin at injection site
substance,measurement,setting,value
POZ10p20k[Apo (4′-triazolebutanoate)(mono-ethyl succinate]10 [POZ-Apomorphine G],tolerability after SC injection,"primates, SC injection 3.0 mg/kg (apomorphine equivalents), multiple doses",well tolerated
same,skin at the site of injection 12 hours after the third dose (day 14),weekly SC injection 3.0 mg/kg (apomorphine equivalents),appeared normal with no sign of erythema and swelling
